Patent publication US20250049939A1, “NOVEL FLT3 ANTIBODIES AND ANTIBODY-DRUG-CONJUGATES BASED THEREON, THERAPEUTIC METHODS AND USES THEREOF IN COMBINATION WITH TYROSINE KINASE INHIBITORS” (TUBULIS GmbH, priority 2021, published 2025)

System: FLT3 cell surface expression in MOLM-13 cells
Assay: FLT3 cell surface expression in MOLM-13 after kinase inhibitors, flow cytometry
Assay type: cell-based, human
Conditions: 6, 24, 48 and 72 h incubation
Method: Cells were analyzed in flow cytometry after treatment. Dotted line represents MFI ratio of untreated cells. Mean±s.d. of n=2 is depicted. […] Grey triangles indicate increasing drug concentrations. […] Mean±standard deviation is depicted.

In the case of `CC(C)(C)c1cc(NC(=O)Nc2ccc(-c3cn4c(n3)sc3cc(OCCN5CCOCC5)ccc34)cc2)no1` [Quizartinib], the “FLT3 cell surface expression” value is reported as “increase of FLT3 cell surface expression”.
